An excerpt weighted towards active compounds, which were near 3.7% of everything screened.
Nrf2 inh = Nrf2 pathway inhibition; A549 ARE-Fluc reporter, luciferase luminescence, 18-24 h; Potency, µM (series often up to 46 µM), for the others: at the highest dose activity change, negative = inhibition, usual class: inhibitors; 2.1% of 360,000 active; AID 504444; further: potency means the concentration at half of the fitted maximal effect; on the % scale 0 is the no-effect control and ±100 the full control effect; nearly all actives have a fitted effect of over 60% in size
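Nrf2 function is reported as luminescence of an ARE-controlled luciferase in A549 cells. Compounds were tested at several concentrations, and a CellTiter-Fluor read on the same wells flagged cytotoxicity.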
IL-2 act = activators of IL-2. IL-2 activation reporter assay, cell-based qHTS; stimulated with anti-CD3/CD4/CD28 beads; in transgenic mouse T cells. AID 652025. activation, % (series mostly up to about 46 µM). 0.065% of 360,000 active; in the data active means activation above about 50%; inconclusive means mostly about 30% to 49%; further: 0% is about no effect
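Unstimulated transgenic mouse T cells; 60-min compound exposure; bead-based TCR/CD4/CD28 stimulation; 18 h culture, 37 degrees C; dual fluorescence (EGFP, DsRed) plate cytometry.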
miR-21 reporter = raises the signal of a miR-21 reporter; HeLa miR-21 FLuc reporter, luciferase, 48 h; Potency, µM (highest dose often 38.3 µM), for inactives: at the highest dose reporter change, positive = more light; 340,000 tested, under 10 active; active = well fitted rising curve with a large enough effect; inconclusive = small, poorly fitted or top-dose-only effect; inactive = no such curve, though single readings can be large or run the other way;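 also: % of control where 0% means no effect; miR-21 action dims this reporter so a rising signal means less miR-21 action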
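Luminescence from a firefly luciferase reporter carrying a miR-21 binding site downstream, stably expressed under a CMV promoter in HeLa cells that make miR-21 endogenously, reports miRNA modulation after 48 h compound exposure up to approximately 40uM final.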
Nrf2 activator = activates Nrf2 signaling | AREc32 ARE-luciferase reporter (MCF7-derived line), luminescence, 24 h | Potency, µM (series often up to 46.1 µM), without a hit: at the highest dose activation, hits mostly activators | 0.31% of 410,000 active | AID 624171; further: potency means the concentration at half of the fitted maximal effect; % of control where 0% means no effect; nearly all actives have a fitted effect of over 65% in size
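ARE activation measured as luciferase luminescence (Steady-Glo, 30 min RT) in AREc32_Fluc cells after 24 hr compound exposure at 37 deg C, 5% CO2; cells seeded overnight at 1000/well in OPTI-MEM, 5% FBS.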
A549 tox = kills or reduces viability of A549 cells in Nrf2 counter-screen; A549 ARE-Fluc cells, CellTiter-Fluor viability, 18-24 h; Potency, µM (doses to about 46 µM), for the others: at the top dose activity change, negative = cytotoxicity, hits mostly inhibitors; 0.16% of 390,000 active; further: potency means the concentration at half of the fitted maximal effect; on the % scale 0 is the no-effect control and ±100 the full control effect
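Cytotoxicity counterscreen: CellTiter-Fluor fluorescence was measured in A549 ARE_Fluc cells after 18-24 h of compound exposure in a concentration series. The subsequent BugLite luminescent read reports ARE-luciferase activity.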
ClpP mod = qHTS Assay for Activators of ClpP | 1.9% of 340,000 active | ATP-dependent Clp protease proteolytic subunit (Bacillus subtilis (strain 168)), P80244 | purified B. subtilis ClpP, FRET peptide cleavage, 20 min | AID 651965, 2013 | Potency, µM (doses to about 57.5 µM), for inactives: top-dose activity change, negative = active; active means well fitted falling curve with a large enough effect; inconclusive means small, poorly fitted or top-dose-only effect; inactive means no such curve, though single readings can be large or run the other way; further: potency means the concentration at half of the fitted maximal effect; the source files actives as falling curves though it sought activators and does not explain the sign; nearly all actives have a fitted effect of over 65% in size
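FRET quenching reversal measured ClpP activation: 10 microg/mL B. subtilis ClpP at pH 8 with the FRET-FV decapeptide, read at 430 nm after 320 nm excitation. The 20-min minus 0-min signal was scaled between DMSO/no-enzyme wells and ADEP (5.8 microM final).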
* hit, by the source's call; ? = inconclusive; . = not tested or not shown; ! = not confirmed by another sample; [ ] = remark or other dose. Unless noted, the call rests on the fitted dose curve; in most records, active means well fitted curve in the direction sought with a large enough effect; inconclusive means small, poorly fitted or top-dose-only effect, or another doubt; inactive means no such curve, though single readings can be large; an effect the other way counts as inactive or inconclusive.

Amino acid sequences for entries named in this document (tags omitted).
ATP-dependent Clp protease proteolytic subunit (Bacillus subtilis (strain 168)), P80244, UniProt P80244, whole entry, looked up: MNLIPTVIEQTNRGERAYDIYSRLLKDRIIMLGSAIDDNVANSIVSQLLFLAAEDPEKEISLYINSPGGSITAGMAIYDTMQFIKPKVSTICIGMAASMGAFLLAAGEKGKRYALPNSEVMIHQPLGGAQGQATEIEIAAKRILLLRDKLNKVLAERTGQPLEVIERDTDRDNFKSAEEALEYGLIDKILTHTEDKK

Short forms – A = Nrf2 inh; B = IL-2 act; C = miR-21 reporter; D = Nrf2 activator; E = A549 tox; F = ClpP mod
[1] OCCCNc1c2ccccc2nc2ccccc12
  A = 8.2µM*; B = -5.0; C = ?; D = -1.1%; E = ?; F = .

[2] CCCNC(=O)CCC(=O)N1Cc2cccc(OC)c2Oc2ncccc21
  A = ?; B = .; C = 1.5%; D = -0.7%; E = 0.8%; F = -0.5%

[3] O=c1c(N2CCc3ccccc3C2)csc2ccc(Cl)cc12
  A = .; B = .; C = -13.3%; D = 4.9%; E = -14.7%; F = ?

[4] CC(=O)c1ccccc1OCc1ccc(S(=O)(=O)Cc2ccccc2)cc1
  A = 20.6µM*; B = -0.1; C = 16.4%; D = 2.8%; E = -5.3%; F = -2.9%

[5] CN1CC=C2C(C#N)=C(N)C(C#N)(C#N)C(CCc3ccccc3)C2C1 (stereo unspecified)
  A = -4.8%; B = 3.8; C = 0.3%; D = 3.9%; E = 1.0%; F = 28.2µM*

[6] CCCC1C2CN(C(C)C)CC=C2C(C#N)=C(N)C1(C#N)C#N (stereo unspecified)
  A = 6.51µM*; B = 2.3; C = 0.3%; D = 0.8%; E = ?; F = 28.2µM*

[7] CCc1ccc(NC(=O)C2=CC(c3cccs3)=NS(=O)(=O)N2C)cc1
  A = 16.4µM*!; B = -1.7; C = -1.3%; D = -0.7%; E = -16.3%; F = -0.5%

[8] O=C(NCCc1ccccc1)c1ccc(CSc2nc3ccncc3n2Cc2ccccc2)cc1
  A = ?; B = .; C = -19.0%; D = 6.2%; E = -15.4%; F = -15.2%

[9] CCc1ccc(OC)c(S(=O)(=O)Nc2ccc(Cc3ccncc3)cc2)c1
  A = 18.4µM*; B = -0.1; C = 17.5%; D = 6.9%; E = -22.6%; F = .

[10] COc1ccc(C(=O)Nc2ccccc2)cc1S(=O)(=O)Nc1ccc(Br)cc1
  A = -3.4%; B = .; C = -3.0%; D = -0.7%; E = -0.4%; F = 14.6%

[11] COc1ccc(NS(=O)(=O)c2cc(NC(=O)c3cncc(Br)c3)ccc2OC)cc1
  A = ?; B = 0.1; C = .; D = 2.6%; E = 0.6%; F = 28.2µM*

[12] CCCC(=O)Nc1ccc(C(=O)NN2C(=O)c3ccccc3C2=O)cc1
  A = 8.2%; B = -3.2; C = -14.1%; D = -0.8%; E = 1.6%; F = 1.3%

[13] CC(C)CC(=O)Nc1ccc(C(=O)NN2C(=O)c3ccccc3C2=O)cc1
  A = -5.7%; B = -2.1; C = -3.1%; D = -0.7%; E = -0.2%; F = 31.6µM*

[14] Cc1ccc(NC(=O)CN2C(=O)c3ccccc3C2=O)cc1
  A = -14.1%; B = 0.2; C = 1.8%; D = -0.8%; E = -8.1%; F = 28.2µM*

[15] Cc1ccc(NC(=O)CNC(=O)CN2C(=O)c3ccccc3C2=O)cc1
  A = .; B = 0.5; C = .; D = -1.0%; E = .; F = 1.7%

Down the list, quoted from above:
Compounds 1–6 in ClpP mod: ., -0.5%, ?, -2.9%, 28.2µM*, 28.2µM*
Compounds 1–6 in Nrf2 inh: 8.2µM*, ?, ., 20.6µM*, -4.8%, 6.51µM*

Next results:
Short forms – A = Nrf2 inh; B = IL-2 act; C = miR-21 reporter; D = Nrf2 activator; E = A549 tox; F = ClpP mod
[16] CCOC(=O)c1cnc2ccc(Cl)cc2c1Nc1ccc(OCC)cc1
  A = 3.2%; B = .; C = -1.1%; D = 7.4%; E = -5.8%; F = -3.7%

[17] Cc1cc(NC(=O)CN(C)S(=O)(=O)c2ccc3c(c2)CCCC(=O)N3)ccc1Br
  A = 20.6µM*; B = .; C = ?; D = 0.5%; E = -8.8%; F = -0.1%

[18] Cc1ccc(NC(=O)C2CCCN(S(=O)(=O)c3ccc4c(c3)CCCC(=O)N4)C2)cc1N(C)C (stereo unspecified)
  A = 16.4µM*; B = .; C = 21.6%; D = 0.1%; E = 0.5%; F = 2.1%

[19] CC(=O)Nc1ccc(NC(=O)CN(C)S(=O)(=O)c2ccc3c(c2)CCC(=O)N3)cc1
  A = -2.3%; B = 0.9; C = -2.8%; D = -0.9%; E = -3.4%; F = -0.7%

[20] Cc1ccc(NC(=O)C2CCN(S(=O)(=O)c3ccc4c(c3)CCCC(=O)N4)CC2)cc1N(C)C
  A = ?; B = -1.7; C = 12.8%; D = 0.0%; E = -3.9%; F = 1.2%

[21] Cc1c(C(=O)Nc2ccc(F)c(F)c2)oc2ccc(S(=O)(=O)N(C)C3CCCCC3)cc12
  A = .; B = .; C = 26.9%; D = -0.5%; E = 0.8%; F = ?

[22] COc1ccc(C2C=C(c3cccc(OC)c3)Nc3c(C(=O)Nc4ccccc4)cnn32)cc1 (stereo unspecified)
  A = -18.4%; B = .; C = -2.9%; D = 2.8%; E = 4.3%; F = -3.6%

[23] N#Cc1c(-n2ncnc2-c2ccccc2C(F)(F)F)sc2c1CCCCC2
  A = ?; B = .; C = -4.9%; D = 9.1%; E = -0.2%; F = -0.4%

[24] COc1ccc(CCN2CC(O)=C(c3nc4ccccc4c(=O)[nH]3)C2=N)cc1OC
  A = -24.3%; B = 0.7; C = -0.9%; D = -0.5%; E = ?; F = 22.4µM*

[25] Cc1nnsc1S(=O)c1ccc(Cl)c(Cl)c1 (stereo unspecified)
  A = -17.4%; B = 3.0; C = ?; D = 11.2µM*; E = -8.9%; F = 0.9%

[26] CSc1cccc(Nc2cc(C(=O)NCCCN(Cc3ccccc3)C(C)C)c3ccccc3n2)c1
  A = .; B = .; C = ?; D = -3.4%; E = ?; F = 35.5µM*

[27] Cc1cc2c(s1)c1cnn(Cc3ccccc3F)c(=O)c1n2C(C)C
  A = ?; B = .; C = .; D = .; E = 3.5%; F = .

[28] CN(C)c1ccc(C(C[N+](=O)[O-])c2c(N)n(C)c(=O)n(C)c2=O)c(F)c1C#N (stereo unspecified)
  A = ?; B = -0.8; C = ?; D = ?; E = -17.8%; F = 114.7%

[29] Cn1c(N)c(C(C[N+](=O)[O-])c2c(F)cccc2Cl)c(=O)n(C)c1=O (stereo unspecified)
  A = 10.9%; B = -3.2; C = 12.6%; D = 15.8µM*; E = -5.0%; F = 0.0%

[30] Cc1ccc(CNC(=O)CSCc2ccccc2C)cc1
  A = .; B = .; C = -36.6%; D = 3.7%; E = 16.3%; F = 0.2%

[31] COc1ccc(-c2nn(-c3ccccc3)cc2C(=O)O)cc1OC
  A = -24.8%; B = -3.2; C = -10.3%; D = -0.3%; E = ?; F = 25.1µM*

[32] COc1ccccc1-c1nn(-c2ccccc2)cc1C(=O)N1CCc2ccccc2C1
  A = 20.6µM*; B = -0.3; C = .; D = 4.7%; E = ?; F = -7.1%

[33] COc1cc2nc(N3CCCN(C)CC3)nc(Nc3ccncc3)c2cc1OC
  A = .; B = .; C = .; D = .; E = .; F = 4.3%

[34] CC1=C(C(=O)Nc2ccccc2C)C(c2cccnc2)n2nc(SCc3ccccc3F)nc2N1 (stereo unspecified)
  A = 12.6%[9.27 µM]; B = .; C = 7.9%; D = -0.7%; E = 1.4%; F = 2.3%

[35] Cc1ccc2nc(-c3ccc(F)cc3)c(NC(C)(C)CC(C)(C)C)n2c1
  A = -13.6%; B = .; C = -2.0%; D = -0.2%; E = -3.5%; F = ?

[36] CC(C)(C)CC(C)(C)Nc1c(-c2ccc(O)cc2)nc2cnccn12
  A = ?; B = -0.8; C = .; D = 0.5%; E = -11.9%; F = 22.4µM*

[37] CCN(CC)C(=O)CSc1nc(-c2cccs2)cc(-c2cccs2)c1C#N
  A = 18.4µM*; B = -1.8; C = 2.0%; D = 0.1%; E = -20.2%; F = 25.1µM*

[38] CCN(CC)C(=O)CSc1nc(N)c(C#N)c(-c2cccs2)c1C#N
  A = -18.1%; B = -3.7; C = -16.3%; D = 3.5%; E = 1.0%; F = ?

[39] Cc1ccc(CSc2nc(-c3cccs3)ccc2C#N)cc1
  A = 3.2%; B = .; C = -19.4%; D = ?; E = -1.5%; F = 3.6%

[40] C#CCSc1nc(-c2cccs2)ccc1C#N
  A = -13.4%; B = 0.0; C = -1.8%; D = ?; E = -1.3%; F = 31.6µM*

[41] COC(=O)CSc1nc(-c2cccs2)ccc1C#N
  A = .; B = -1.7; C = -55.7%; D = ?; E = 2.6%; F = 6.31µM*

[42] Cn1c(=O)cc(SCC(=O)Nc2cccc(C#N)c2)c2ccc(Cl)cc21
  A = -3.1%; B = .; C = -2.3%; D = -0.5%; E = 2.1%; F = -2.6%

[43] CCOP(=O)(OCC)c1nc(-c2ccccc2Cl)oc1N1CCOCC1
  A = -17.2%; B = -0.2; C = -2.4%; D = 2.5%; E = -0.3%; F = .

[44] CCOP(=O)(OCC)c1nc(-c2ccc(Cl)cc2Cl)oc1N1CCCCC1
  A = 20.6µM*; B = -3.1; C = -4.2%; D = 4.2%; E = ?; F = .

Structures listed so far containing a tert-butyl group:
Short forms – A = Nrf2 inh; B = IL-2 act; C = miR-21 reporter; D = Nrf2 activator; E = A549 tox; F = ClpP mod
[35] Cc1ccc2nc(-c3ccc(F)cc3)c(NC(C)(C)CC(C)(C)C)n2c1
  A = -13.6%; B = .; C = -2.0%; D = -0.2%; E = -3.5%; F = ?

[36] CC(C)(C)CC(C)(C)Nc1c(-c2ccc(O)cc2)nc2cnccn12
  A = ?; B = -0.8; C = .; D = 0.5%; E = -11.9%; F = 22.4µM*
